In patent US20230165841A1, “PREVENTION AND INTERVENTION OF INFARCT EXPANSION FOLLOWING HEMORRHAGIC INFARCTIONS” (CEDARS-SINAI MEDICAL CENTER, priority 2020, published 2023):

Test system: cardiomyocyte culture
Assay: Total ROS in cardiomyocyte culture treated with Hx, DFP, hemin
Type: cell-based
Details: versus hemin and pre-treatment with DFP
Text: FIG. 16 is a bar graph depicting the total ROS production (μM/mg protein/min) in cardiomyocyte culture treated with different agents or control, indicating the importance of physiochemical state of degradation products of hemorrhage being the therapeutic targets.
Physiochemical features of degradation products of hemorrhage are important for determining optimal therapy. An early byproduct of hemorrhage is extracellular heme (an Fe^2+ complex), which is eventually internalized by cardiomyocytes. Applicant tested whether pretreating cardiomyocytes in culture with hemopexin (Hx), a heme scavenger, can rescue the cells from oxidative stress compared to an intracellular Fe^3+ chelator deferiprone (DFP). Methods: Studies were performed in an cardiomyocyte culture. Total ROS following treatment with Hx, DFP, hemin, hemin+Hx, hemin+DFP were measured. […] Summary: Location of hemorrhagic byproducts (intra- vs. extra-cellular) and oxidation state are critical features that need to be accounted for in the development of therapies against hMI. To develop an optimal ICT strategy against hMI we will identify the physiochemical features of hemorrhagic byproducts in rats with hMI sacrificed at different time points.

hemopexin
Total ROS, pre-treatment and then exposing to hemin: significantly reduced
